Source: paper PMC8333062, “Chemical tools for epichaperome-mediated interactome dysfunctions of the central nervous system” (Nature Communications, 2021)

Assay: PAMPA-BBB permeability

Cn1c(=O)c2c(ncn2C)n(C)c1=O [caffeine, reference compound]
PAMPA-BBB (PB) permeability Pe: 4.7 ± 0.1 10^−6 cm s^−1
